For one test, the system named is OECM1-Ctx^R cells. Nature of the test: Growth inhibition of the cetuximab-resistant subline OECM1-Ctx^R. Format: cell-based, human. The note with it: OECM1-Ctx^R subline in comparison with OECM1 parental cells, growth curve. The protocol: (§1) After 24 h treatment, the medium was removed.
For test [1], the system named is FaDu-Ctx^R and FaDu-control sublines. Nature of the test: In vivo validation of cetuximab resistance, FaDu-Ctx^R and FaDu-control xenografts. The following applies: sublines inoculated into nude mice again and treated with cetuximab. An excerpt:
FIGS. 2(A)-(B). (A) illustrates the generation of in vivo-selected FaDu-Ctx^R cells. […] The above sublines were inoculated into the subcutaneous area of nude mice and treated with cetuximab (ctx), and FaDu-ctrl treated with PBS was applied as a control. Left, the relative tumor volume of the mice. Right, a photo for showing the xenotransplanted tumors. Scale bar=1 cm.
(§2) A cetuximab-resistant HNSCC subline (named FaDu-Ctx^R) was established by in vivo selection. 1×10^5 wild-type FaDu cells per mouse were inoculated into the subcutaneous area of Balb/c nude mice (n=4). Two mice were treated with PBS and two were treated with cetuxmab once a week. […] After 10 weeks, the xenograpfted tumor was harvested for primary culture. […] The resistance of FaDu-Cxt^R was confirmed in vivo and in vitro. Subsequently, these two sublines were inoculated into nude mice again and treated with cetuximab.

The test system of a further test is OECM1 cells. As to the kind of experiment: Cell viability (MTT) assay, OECM1 parental cells. Format: cell-based, human. The note with it: cetuximab on OECM1 parental cells. The protocol:
as §1

Another test concerns wild-type FaDu cells. As to the kind of experiment: Wild-type FaDu subcutaneous xenograft in nude mice (in vivo selection). More on the design: species or system Balb/c nude mice. The note with it: two mice treated with cetuximab once a week. Here is the method: as §2

These results are taken from patent US10413564B2, “Compositions and methods for combating drug-resistant cancers” (NATIONAL YANG-MING UNIVERSITY, priority 2016, dated 2019).

On to cetuximab, for which the “inhibition rate by cetuximab” value in the test with OECM1-Ctx^R cells is given as “lower inhibition rate”. For the same substance, in test [1], the “persistence of tumors under cetuximab” value was “persistence of tumors was only shown in FaDu-Ctx^R but not in FaDu-control”. For the same substance, the “IC50 of OECM1” value with OECM1 cells amounted to 200 µg/mL. Further, the “tumor response of wild-type FaDu xenografts” value in the test with wild-type FaDu cells is “total tumor shrinkage wad noted in one, and another mouse showed persistent tumor growth”.
